# PubChem BioAssay AID624466 (The Scripps Research Institute Molecular Screening Center, 2012)
# Protein sequences, listed by entry. Tags and fused reporters are not part of them. Lines headed by an entry give the natural chain unless they say otherwise; changes in a name come on top.
# UniProt Q96RJ0: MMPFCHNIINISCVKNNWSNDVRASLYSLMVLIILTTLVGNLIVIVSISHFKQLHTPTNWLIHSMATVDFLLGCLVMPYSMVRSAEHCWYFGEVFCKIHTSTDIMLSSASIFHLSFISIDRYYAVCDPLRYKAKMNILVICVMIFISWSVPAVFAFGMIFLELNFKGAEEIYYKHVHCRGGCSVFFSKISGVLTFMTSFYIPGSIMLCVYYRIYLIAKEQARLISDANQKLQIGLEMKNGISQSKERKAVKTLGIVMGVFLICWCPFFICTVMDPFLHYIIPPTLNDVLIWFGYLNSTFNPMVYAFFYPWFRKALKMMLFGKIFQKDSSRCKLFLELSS
# The entries are a selection whose mix differs from that of the whole data set. The source made the active and inactive calls.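 Rule for the calls: active = inhibition above a per-plate cutoff, the mean inhibition of test compounds on that plate plus 3 SD (cut at about 49% in these data); inactive = the rest.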
# Molecular target: Trace amine-associated receptor 1 (Homo sapiens) (UniProt Q96RJ0)
# Assay: blockers of beta-PEA-driven TAAR1 calcium signal – Fluo-8 calcium fluorescence, CHO RD-HGA16 cells, primary screen (AID 624466);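 note: 0% = DMSO plus EC80 beta-PEA response and 100% = DMSO alone without agonist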
# Details: CHO RD-HGA16 TAAR1, Fluo-8 calcium fluorescence, antagonist; at 3 µM; active compounds read high
row,Compound,inhibition
1,CC(C)NC(=O)NP(=O)(Oc1ccccc1)Oc1ccccc1,inactive: 11.8%
2,O=C(OC1CN2CCC1CC2)c1cccc2[nH]cnc12 (stereo not given),inactive: -6.29%
3,CCN(CC)C(=S)SC(NC=O)C(Cl)(Cl)Cl (stereo not given),inactive: 2.55%
4,COC(=O)C1(C)COP(=O)(N2CCCCCC2)OC1 (stereo not given),inactive: 2.36%
5,CC(C)c1ccc(OP(=O)(Nc2ccccn2)Oc2ccccc2F)cc1 (stereo not given),inactive: 6.2%
6,ClCCSc1nnc(-c2cccnc2)o1,inactive: 2.29%
7,Cc1ccc2nc3c(c(C)c2c1)CC(C(Cl)Cl)S3 (stereo not given),inactive: -1.18%
8,[N-]=[N+]=NC1CCCCC1NC(=O)c1cc([N+](=O)[O-])cc([N+](=O)[O-])c1 (stereo not given),inactive: -3.5%
9,Cc1ccc(OP(=O)(Nc2ccc([N+](=O)[O-])cn2)Oc2ccc(C)cc2)cc1,inactive: -14%
10,O=[N+]([O-])c1ccc(-c2cc([N+](=O)[O-])c(O)c([N+](=O)[O-])c2)cc1,inactive: -9.77%
11,COc1cc(C(=O)NCC2(N3CCOCC3)CCCCC2)ccc1OCC(C)C,inactive: -10.3%
12,O=[As](O)(c1ccc(O)cc1)c1ccccc1O,inactive: -25.1%
13,C[As](=O)(O)c1cccc(C(=O)O)c1,inactive: -12.9%
14,COc1ccc(N/C(=N/P(=O)(N2CCOCC2)N2CCOCC2)N2CCOCC2)cc1,inactive: -30.7%
15,O=[N+]([O-])c1cc(Oc2ccc([N+](=O)[O-])cc2C(F)(F)F)cc([N+](=O)[O-])c1,inactive: -17%
16,COc1cc(I)ccc1[As](=O)(O)O,inactive: -25.4%
17,COc1ccc2nc(NP(=O)(c3ccccc3)c3ccccc3)sc2c1,inactive: 8.61%
18,O=P1(N(CCCl)CCCl)Nc2ccccc2N1,inactive: -5.03%
19,O=P1(N(CCCl)CCCl)OCCCN1CCCl (stereo not given),inactive: 1.8%
20,Cc1cc(=O)[nH]c(N[N+](=O)[O-])n1,inactive: 8.09%
21,O=C(OC1CN2CCC1CC2)C12CC3CC(CC(C3)C1)C2 (stereo not given),inactive: -19.6%
22,Cc1c2c(nc3ccccc13)SC(C(Cl)Cl)C2 (stereo not given),inactive: 6.49%
23,CCC(C)N(CC(C)C)C(=S)SC(NC(C)=O)C(Cl)(Cl)Cl (stereo not given),inactive: -14.6%
24,CCOC(=O)c1ccc(NC(=O)C(C)(CCl)SC)cc1 (stereo not given),inactive: -10.3%
25,O=C(OC1CN2CCC1CC2)c1cccc([N+](=O)[O-])c1 (stereo not given),inactive: 8.14%

row,Compound,inhibition
1,O=C(Nc1ccncc1[N+](=O)[O-])c1ccc([N+](=O)[O-])cc1[N+](=O)[O-],inactive: -4.97%
2,O=C(COc1ccccc1)OC1CN2CCC1CC2 (stereo not given),inactive: 13.2%
3,O=C(O)C(=O)c1ccc(N(CCCl)CCCl)cc1,inactive: -0.94%
4,COC(=O)C1(C)COP(=O)(N2CCCC2)OC1 (stereo not given),inactive: -23%
5,COP1(=S)c2c(C)nn(CCC#N)c2N=C(c2ccc(F)cc2)N1C (stereo not given),inactive: -10.9%
6,O=[N+]([O-])c1ccc(Nc2ccc(Oc3ccc([N+](=O)[O-])cc3[N+](=O)[O-])cc2)c([N+](=O)[O-])c1,inactive: 0.66%
7,O=P(Nc1ccccn1)(c1cccc2ccccc12)c1cccc2ccccc12,inactive: -0.39%
8,Cc1cc(SC(NC=O)C(Cl)(Cl)Cl)ncn1 (stereo not given),inactive: 6.93%
9,CCOC(=O)Nc1cccc([As](=O)(O)O)c1,inactive: -5.94%
10,Cc1cc(SC(NC(=O)c2ccccc2)C(Cl)(Cl)Cl)nc(C(C)C)n1 (stereo not given),inactive: -7.87%
11,CCCCOc1ccc(C(=O)NCC2(N3CCCCC3)CCCCC2)cc1OC,inactive: -10.4%
12,COP(=O)(OC)N1CC1c1ccccc1 (stereo not given),inactive: -11.6%
13,CC1CCNP(=O)(N(CCCl)CCCl)O1 (stereo not given),inactive: -19.4%
14,CCOC(=O)Nc1ccc([As](=O)(O)O)c(O)c1,inactive: 8.01%
15,O=C(O)C(O)c1ccc(N(CCCl)CCCl)cc1 (stereo not given),inactive: -1%
16,O=[As](O)(c1cccs1)c1cccs1,inactive: -4.52%
17,Cc1ccc(OCC(=O)OC2CN3CCC2CC3)cc1 (stereo not given),inactive: -8.62%
18,O=P1(Nc2ccc(Br)cn2)COc2ccccc2OC1,inactive: 7.06%
19,NS(=O)(=O)c1cccc(NC(=O)COC(=O)C(O)(c2ccccc2)c2ccccc2)c1,inactive: 8.03%
20,Nc1cccc([As](=O)(O)c2ccccc2)c1,inactive: -6.68%
21,O=P1(Nc2ncccn2)COc2ccccc2OC1,inactive: 0.15%
22,Cc1ccc(S(=O)(=O)N(CCCN)CCCc2c(C)nc(N)[nH]c2=O)cc1,inactive: -1.43%
23,CCCC1OP(=O)(Nc2ccccc2)OCC1CC (stereo not given),inactive: -9.64%
24,O=C(/C=C/c1ccccc1)OC1CN2CCC1CC2 (stereo not given),inactive: -11.3%
25,CN(C)C1(CNC(=O)c2ccc(S(C)(=O)=O)cc2)CCCCC1,inactive: -25.8%

row,Compound,inhibition
1,CC1CCC(C(C)C)C(OP(=O)(Nc2ccccn2)c2ccccc2)C1 (stereo not given),inactive: 10.8%
2,Cc1ccc(C(=O)OC2CN3CCC2CC3)cc1 (stereo not given),inactive: 10.4%
3,Cc1nn(-c2ccccc2)c2c1P(=O)(N1CCOCC1)N(C)C(c1ccccc1)=N2 (stereo not given),inactive: 2.01%
4,CC1(CBr)Cn2c(nc3ccccc3c2=O)S1 (stereo not given),inactive: -3.5%
5,CN(C(=O)Cc1ccc(Cl)c(Cl)c1)C1CCCC[C@@H]1N1CCCC1 (stereo not given in full),inactive: -16.2%
6,CC(C)/C=N\N=C(\N)N[N+](=O)[O-],inactive: 17.4%
7,CN(C(=O)Cc1ccc(Cl)c(Cl)c1)[C@@H]1CCCC[C@H]1N1CCCC1,inactive: -12.8%
8,COc1ccccc1CNC(=O)COC(=O)C(O)(c1ccccc1)c1ccccc1,inactive: -5.79%
9,CC(C)(C)C(=O)NC(Sc1ncccn1)C(Cl)(Cl)Cl (stereo not given),inactive: -34.1%
10,O=P1(N(CCCl)CCCl)NCCC(C(F)(F)F)O1 (stereo not given),inactive: -4.64%
11,Clc1n[nH]nc1-c1nn[nH][15n]1,inactive: 7.72%
12,CCOP(=O)(Nc1ccc(C)cn1)OCC,inactive: 7.6%
13,CN(CCCl)Cc1cc(Cl)c(NC2=NCCN2)c(Cl)c1,inactive: -7.02%
14,CCOP(=O)(NC(=NC(C)c1ccccc1)NC(C)c1ccccc1)OCC (stereo not given),inactive: -0.73%
15,O=P1(Nc2ccccn2)COc2ccccc2OC1,inactive: -13.4%
16,CCC1=CC2Cc3nc4ccc(Cl)cc4c(N)c3C(C1)C2 (stereo not given),inactive: 6.12%
17,CCOP(=O)(Nc1cccc2ccccc12)OCC,inactive: -0.75%
18,COc1cc(C2NCCC3(OCCO3)C2(C)C)cc(OC)c1OC (stereo not given),inactive: -7.17%
19,CCCOP(=S)(Nc1nc(N)cc(=O)[nH]1)OCCC,inactive: -12.2%
20,Nc1cccc2c([As](=O)(O)O)cccc12,inactive: -12.8%
21,Cc1ccc(NCCc2c([N+](=O)[O-])cc([N+](=O)[O-])cc2[N+](=O)[O-])cc1,inactive: 14.5%
22,Cc1cccc(OCC(=O)OC2CN3CCC2CC3)c1 (stereo not given),inactive: -11%
23,O=[As](O)(c1cccc(O)c1)c1cccc(O)c1,inactive: -19.1%
24,CS(=O)(=O)c1ccc(Cl)c(NC(=O)COC(=O)C(O)(c2ccccc2)c2ccccc2)c1,inactive: 44.9%
25,O=[As](O)(O)c1cccnc1,inactive: -5.31%

row,Compound,inhibition
1,COc1cc(C(=O)NCC2(N3CCOCC3)CCCCC2)cc(Cl)c1OC(C)C,inactive: -1.29%
2,O=C(OC1CN2CCC1CC2)c1ccc(Cl)cc1 (stereo not given),inactive: -20.7%
3,CN(C(=O)Cc1ccc(Cl)c(Cl)c1)[C@H]1CC[C@@]2(CCCO2)C[C@@H]1N1CCCC1,inactive: -11.2%
4,O=[N+]([O-])c1ccc2c(c1)nnn2O,inactive: 7.85%
5,CN(C)C(=O)c1cc([N+](=O)[O-])cc2c1-c1c(cc([N+](=O)[O-])cc1[N+](=O)[O-])C2=O,inactive: 25.8%
6,CN(C(=O)Cc1ccccc1)[C@@H]1CC[C@]2(CCCO2)C[C@H]1N1CCCC1,inactive: -15.1%
7,CCOP1(=S)c2c(C)nn(CCC#N)c2N=C(c2ccc(F)cc2)N1C (stereo not given),inactive: 5.67%
8,N#CCCN(C(=O)COC(=O)C(O)(c1ccccc1)c1ccccc1)c1ccc(F)cc1,inactive: 8.49%
9,NC(=O)Nc1ccc([As](=O)(O)O)cc1,inactive: 1.92%
10,Nc1ccccc1[As](=O)(O)c1ccccc1,inactive: -22.5%
11,O=C(O)COc1ccc([As](=O)(O)O)cc1[N+](=O)[O-],inactive: -13.7%
12,O=P(Nc1nccs1)(Oc1ccccc1)Oc1ccccc1,inactive: -6.75%
13,CCOP1(=S)c2c(C)nn(CCC#N)c2N=C(c2ccccc2F)N1C (stereo not given),inactive: 18.4%
14,O=c1c2cc([N+](=O)[O-])ccc2[nH]c2c([N+](=O)[O-])cc([N+](=O)[O-])cc12,inactive: 2.71%
15,CN(C)C(=O)Oc1noc2ccccc12,inactive: -12.9%
16,CC(NC(=O)COC(=O)C(O)(c1ccccc1)c1ccccc1)c1ccccc1 (stereo not given),inactive: 17.6%
17,Cc1ccccc1OP(=O)(Nc1ccccn1)Oc1ccccc1C,active: 70.3%
18,Cc1ccc(OP(=O)(Nc2ccccn2)Oc2ccc(C)cc2)cc1,inactive: 27.5%
19,CC(=O)NC(SC(=S)N(CC(C)C)CC(C)C)C(Cl)(Cl)Cl (stereo not given),inactive: -19.4%
20,COC(=O)c1cc2c(s1)N=C(c1ccccc1)N(C)P2(=O)N1CCOCC1 (stereo not given),inactive: -2.29%
21,CCC(=O)N1C2C3N(C(=O)CC)C1C1N(C(=O)CC)C(C(N1C(=O)CC)N3C(=O)CC)N2C(=O)CC,inactive: 10.6%
22,O=C(OC1CN2CCC1CC2)c1ccccc1 (stereo not given),inactive: -6.97%
23,O=P1(N(CCCl)CCCl)OCCC2CCCCN21 (stereo not given),inactive: -17.6%
24,CCNC(=S)/N=C(\N)N[N+](=O)[O-],inactive: 26%
25,O=C(NC1CCS(=O)(=O)C1)NP(=S)(Oc1ccccc1)Oc1ccccc1 (stereo not given),inactive: -11.3%
